Measurements: BindingDB's records for US9221831

By UniProt entry, the sequences of proteins in these tests, tags left out.
UniProt P41145, whole entry: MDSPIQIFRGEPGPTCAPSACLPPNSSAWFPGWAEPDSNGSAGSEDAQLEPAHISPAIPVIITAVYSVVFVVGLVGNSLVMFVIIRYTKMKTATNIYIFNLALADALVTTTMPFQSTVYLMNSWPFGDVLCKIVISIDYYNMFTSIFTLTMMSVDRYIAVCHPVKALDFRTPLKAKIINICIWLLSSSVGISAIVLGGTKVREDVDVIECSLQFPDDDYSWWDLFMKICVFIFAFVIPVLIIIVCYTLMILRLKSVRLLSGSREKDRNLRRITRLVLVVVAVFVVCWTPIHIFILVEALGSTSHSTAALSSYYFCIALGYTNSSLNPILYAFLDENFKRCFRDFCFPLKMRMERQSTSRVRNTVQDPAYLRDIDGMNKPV
UniProt P35372, whole entry: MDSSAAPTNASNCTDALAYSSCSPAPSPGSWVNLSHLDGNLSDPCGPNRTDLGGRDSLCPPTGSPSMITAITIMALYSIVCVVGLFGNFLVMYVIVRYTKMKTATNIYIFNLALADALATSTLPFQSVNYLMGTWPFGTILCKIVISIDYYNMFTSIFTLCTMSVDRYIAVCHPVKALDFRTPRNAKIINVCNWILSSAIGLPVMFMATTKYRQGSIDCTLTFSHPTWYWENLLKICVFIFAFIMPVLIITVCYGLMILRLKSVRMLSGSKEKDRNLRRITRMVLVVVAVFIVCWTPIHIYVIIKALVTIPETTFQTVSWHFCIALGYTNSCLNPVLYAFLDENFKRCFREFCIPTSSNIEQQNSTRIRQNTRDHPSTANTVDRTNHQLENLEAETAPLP

Tests used:
[1] = molecular target: T1, Kappa-type opioid receptor (Homo sapiens, UniProt P41145); assay: ASSAY_NAME: Radioligand Dose-Displacement Binding Assay DESCRIPTION: Radioligand dose displacement assays used 0.4 nM [3H]-U69,593 (GE Healthcare, Piscataway, N.J.; 40 Ci/mmole) with 15 μg membrane protein (recombinant κ opioid receptor expressed in HEK 293 cells; in-house prep) in a final volume of 200 μl binding buffer (5% DMSO, 50 mM Trizma base, pH 7.4). Non-specific binding was
[2] = molecular target: Mu-type opioid receptor (Homo sapiens, UniProt P35372); assay: ASSAY_NAME: Radioligand Dose-Displacement Binding Assay DESCRIPTION: Radioligand dose-displacement binding assays for t-opioid receptors used 0.3 nM [3H]-diprenorphine (Perkin Elmer, Shelton, Conn.), with 5 mg membrane protein/well in a final volume of 500 ul binding buffer (10 mM MgCl2, 1 mM EDTA, 5% DMSO, 50 mM HEPES, pH 7.4). Reactions were carried out in the absence or presence of increasing c
[3] = molecular target: T1, Kappa-type opioid receptor; assay: ASSAY_NAME: Functional Assay DESCRIPTION: Functional [35S]GTPgammaS binding assays were conducted as follows. kippa opioid receptor membrane solution was prepared by sequentially adding final concentrations of 0.026 ug/ul kippa membrane protein (in-house), 10 ug/mL saponin, 3 uM GDP and 0.20 nM [35S]GTPgammaS to binding buffer (100 mM NaCl, 10 mM MgCl2, 20 mM HEPES, pH 7.4) on ice. The prepared me

Compound: COCCOCCOCCOc1ccc2c3c1O[C@H]1[C@@]4(OC)CC[C@@]5(C[C@@H]4COCc4ccccc4)[C@@H](C2)N(CC2CC2)CC[C@]315
- Ki [1]: 2.55 nM
- Ki [2]: 6.72 nM
- EC50 [3]: 11.4 nM

Compound: COc1ccc2c3c1O[C@H]1[C@@]4(OC)CC[C@@]5(C[C@@H]4COc4ccc(-n6ccnc6)cc4)[C@@H](C2)N(CC2CC2)CC[C@]315
- EC50 [3]: 5460 nM

Compound: CO[C@]12CC[C@@]3(C[C@@H]1COCc1ccccc1)[C@H]1Cc4ccc(C(N)=O)c5c4[C@@]3(CCN1C)[C@H]2O5
- Ki [1]: 0.15 nM

Compound: CCCc1cc(COC[C@H]2C[C@@]34CC[C@]2(OC)[C@@H]2Oc5c(OC)ccc6c5[C@@]23CCN(C)[C@@H]4C6)on1
- Ki [1]: 16.2 nM
- EC50 [3]: 645 nM

Compound: CO[C@]12CC[C@@]3(C[C@@H]1COC(=O)[C@H](C)N)[C@H]1Cc4ccc(O)c5c4[C@@]3(CCN1CC1CC1)[C@H]2O5
- Ki [1]: 0.14 nM
- Ki [2]: 1.4 nM
- EC50 [3]: 2.59 nM

Compound: COc1ccc2c3c1O[C@H]1[C@@]4(c5ccccc5)CC[C@@]5(C[C@@H]4COCc4ccccc4)[C@@H](C2)N(CC2CC2)CC[C@]315
- Ki [1]: 1.07 nM

Compound: CC[C@H](C)[C@H](N)C(=O)OC[C@H]1C[C@@]23CC[C@]1(OC)[C@@H]1Oc4c(O)ccc5c4[C@@]12CCN(CC1CC1)[C@@H]3C5
- Ki [1]: 0.06 nM
- Ki [2]: 0.15 nM
- EC50 [3]: 0.96 nM

Compound: COCCOCCOCCOCCOCCO[C@]12CC[C@@]3(C[C@@H]1COCc1ccccc1)[C@H]1Cc4ccc(OC)c5c4[C@@]3(CCN1CC1CC1)[C@H]2O5
- Ki [2]: 15 nM

Compound: COc1ccc2c3c1O[C@H]1[C@@]4(OC)CC[C@@]5(C[C@@H]4CSc4nncs4)[C@@H](C2)N(C)CC[C@]315
- EC50 [3]: 10300 nM

Compound: CO[C@]12CC[C@@]3(C[C@@H]1COCc1ccccc1)[C@H]1Cc4ccc(OCc5nn[nH]n5)c5c4[C@@]3(CCN1CC1CC1)[C@H]2O5
- Ki [1]: 32.7 nM
- Ki [2]: 20.4 nM

Compound: COc1ccc2c3c1O[C@H]1[C@@]4(OC)CC[C@@]5(C[C@@H]4COCc4ccccc4)[C@@H](C2)NCC[C@]315
- EC50 [3]: 22.5 nM

Compound: COc1ccc2c3c1O[C@H]1[C@@]4(OC)CC[C@@]5(C[C@@H]4CS(=O)(=O)Cc4ccccc4)[C@@H](C2)N(CC2CC2)CC[C@]315
- Ki [1]: 1.39 nM

Compound: CO[C@]12CC[C@@]3(C[C@@H]1COCc1cccc(NC(=O)c4ccccc4)c1)[C@H]1Cc4ccc(O)c5c4[C@@]3(CCN1CC1CC1)[C@H]2O5
- Ki [1]: 0.15 nM
- Ki [2]: 1.17 nM
- EC50 [3]: 0.54 nM

Compound: CC[C@H](C)[C@H](N)C(=O)OC[C@H]1C[C@@]23CC[C@]1(OC)[C@@H]1Oc4c(OC)ccc5c4[C@@]12CCN(CC1CC1)[C@@H]3C5
- Ki [1]: 0.73 nM

Compound: CCOC(=O)CC[C@H]1[C@H](COCc2ccccc2)[C@@]23CC[C@]1(OC)[C@@H]1Oc4c(OC)ccc5c4[C@@]12CCN(CC1CC1)[C@@H]3C5
- Ki [1]: 2.55 nM
- EC50 [3]: 129 nM

Compound: COc1ccc2c3c1O[C@H]1[C@@]4(OC)CC[C@@]5(C[C@@H]4CN(Cc4ccccc4)S(C)(=O)=O)[C@@H](C2)N(CC2CC2)CC[C@]315
- Ki [1]: 0.43 nM

Compound: COc1ccc2c3c1O[C@H]1[C@@]4(OC)CC[C@@]5(C[C@@H]4CN(Cc4ccccc4)C(C)=O)[C@@H](C2)N(CC2CC2)CC[C@]315
- Ki [1]: 0.14 nM
- EC50 [3]: 8.13 nM

Compound: COc1ccc2c3c1O[C@H]1[C@@]4(OC)CC[C@@]5(C[C@@H]4CNCc4ccccc4)[C@@H](C2)N(CC2CC2)CC[C@]315
- Ki [2]: 9.01 nM

Compound: COc1ccc2c3c1O[C@H]1[C@@]4(OC)CC[C@@]5(C[C@@H]4COCc4cccc(NC(N)=O)c4)[C@@H](C2)N(CC2CC2)CC[C@]315
- Ki [1]: 1.37 nM

Compound: C=Cc1ccc2c3c1O[C@H]1[C@@]4(OC)CC[C@@]5(C[C@@H]4COCc4ccccc4)[C@@H](C2)N(C)CC[C@]315
- EC50 [3]: 6.82 nM

Compound: COc1ccc2c3c1O[C@H]1[C@@]4(O)CC[C@@]5(C[C@@H]4COCc4ccccc4)[C@@H](C2)N(CC2CC2)CC[C@]315
- Ki [2]: 3.32 nM

Compound: CO[C@]12CC[C@@]3(C[C@@H]1COCc1ccccc1)[C@H]1Cc4ccc(OCC(N)=O)c5c4[C@@]3(CCN1CC1CC1)[C@H]2O5
- Ki [1]: 0.29 nM
- Ki [2]: 8.69 nM
- EC50 [3]: 2.44 nM

Compound: CCOC(=O)CC[C@H]1[C@H](COCc2ccccc2)[C@]2(OC)CC[C@]13[C@H]1Cc4ccc(OC)c5c4[C@@]3(CCN1CC1CC1)[C@H]2O5
- Ki [1]: 8.33 nM
